Data published in patent US11370766B2, “Sulfonyl amidine as indoleamine-2,3-dioxygenase inhibitor, and preparation method therefor and use thereof” (SHANGHAI LONGWOOD BIOPHARMACEUTICALS CO., LTD., priority 2016, dated 2022).

Amino acid sequences for entries named in this document (tags omitted).
UniProt P14902, whole entry: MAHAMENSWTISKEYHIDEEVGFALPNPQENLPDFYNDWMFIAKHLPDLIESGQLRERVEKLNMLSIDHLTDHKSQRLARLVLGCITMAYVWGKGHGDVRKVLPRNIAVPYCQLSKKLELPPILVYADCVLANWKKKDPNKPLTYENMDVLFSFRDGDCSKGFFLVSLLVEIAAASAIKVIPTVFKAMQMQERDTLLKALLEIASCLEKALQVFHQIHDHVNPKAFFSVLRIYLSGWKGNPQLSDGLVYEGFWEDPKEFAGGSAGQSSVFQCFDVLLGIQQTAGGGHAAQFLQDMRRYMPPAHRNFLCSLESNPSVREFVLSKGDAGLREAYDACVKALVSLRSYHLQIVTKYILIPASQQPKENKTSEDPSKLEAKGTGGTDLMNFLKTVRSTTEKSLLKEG

Assays:
IDO1 in Hela cells = IDO1 in Hela cells (Homo sapiens, UniProt P14902); assay: IDO cytology test (LC-MS), kynurenine in IFN-gamma-stimulated Hela cells; conditions: read-out: Hela IC50, interferon gamma 100 ng/mL, 20 h, kynurenine by LC/MS
Description: 2. IDO Cytology Test Method (LC-MS)
Content of research: the inhibitory effect of the compound on the activity of IDO1 in Hela cells was examined.
RPMI 1640 (phenol red free) medium (Invitrogen Cat. No. 11835030), fetal bovine serum (Invitrogen Cat. No. 10099141), penicillin and streptomycin (Invitrogen Gibco Cat. No. 15140-122), recombinant human interference γ (R&D system, Cat. No. 285-IF-100). 5% (w/v) trichloroacetic acid (Alfa Aesar Cat. No. A11156), DMSO (Sigma, Cat. No. D2650), 96-well plate_compound dilution plate (Axygen, Cat. No. WIPP02280), 96-well plate_test plate (Greiner, Cat. No. 655090)
The test compounds and the reference compound LW3018 were finally tested at concentrations ranging from […] to 0.76 nM, 3-fold gradient dilution, 9 concentrations, and two replicate wells.
Hela cells were plated in 96-well cell culture plates at a number of 40,000 cells per well, and incubated with RPMI 1640 containing 10% fetal bovine serum for 5-6 hours. The diluted test compound and recombinant human interferon gammaa (final concentration at 100 ng/mL) were added to activate IDO1 expression. The cells were cultured in a 37° C. cell incubator which was enriched with 5% carbon dioxide for 20 hours, and the reaction was stopped with 5% trichloroacetic acid and incubated for 30 minutes at 50° C. […]

IDO1 = IDO1 (Homo sapiens, UniProt P14902); assay: IDO1 enzyme activity test (NFK Green); conditions: read-out: IDO IC50; 10 nM IDO1, 100 uM L-tryptophan, NFK green fluorescence
Description: 1. IDO1 Enzyme Activity Test Method (NFK Green)
Content of research: the inhibitory effect of the compound on the activity of IDO1 enzyme was examined.
IDO assay kit (NTRC, Cat. No. NTRC-hTDO-1K), DMSO (Sigma, Cat. No. D2650), 384-well plate_compound dilution plate (Greiner, Cat. No. 781280), 384-well plate_test plate (Perkin Elmer, Cat. No. 6007299)
10 nM IDO1 was incubated with compound or DMSO at 23° C. for 30 minutes, and L-type tryptophan was added at a final concentration of 100 uM and reacted for 1.5 hours. NFK green was added and incubated at 37° C. for 4 hours, and fluorescence signal data (excitation band, 400/25; emission band, 510/20) was corrected with Envision. Data analysis and mapping was conducted by XLfit5 software.
The test compounds and the reference compound LW3018 were finally tested at concentrations ranging from […] to 0.51 nM, 3-fold gradient dilution, 10 concentrations, and two replicate wells.

Compound | IC50 (IDO1 in Hela cells) [nM] | IC50 (IDO1) [nM]
CS(=N)(=O)NCCNc1nonc1C(=NO)Nc1ccc(F)c(Br)c1 (single isomer, unassigned) [LW105-1-19] | 6.7 | 
CS(=N)(=O)NCCNc1nonc1C(=NO)Nc1ccc(F)c(Br)c1 (single isomer, unassigned) [LW105-1-18] | 7.6 | 22.8
